Laboratory results: patent publication US10174056B2, “Substituted pyrrolo[2,3-d]pyrimidines as janus kinase inhibitors” (WUXI FORTUNE PHARMACEUTICAL CO., LTD, priority 2015, dated 2019)

Amino acid sequences for entries named in this document (tags omitted). A change or cut given only in a name is not applied to a line headed by its entry.
UniProt O60674: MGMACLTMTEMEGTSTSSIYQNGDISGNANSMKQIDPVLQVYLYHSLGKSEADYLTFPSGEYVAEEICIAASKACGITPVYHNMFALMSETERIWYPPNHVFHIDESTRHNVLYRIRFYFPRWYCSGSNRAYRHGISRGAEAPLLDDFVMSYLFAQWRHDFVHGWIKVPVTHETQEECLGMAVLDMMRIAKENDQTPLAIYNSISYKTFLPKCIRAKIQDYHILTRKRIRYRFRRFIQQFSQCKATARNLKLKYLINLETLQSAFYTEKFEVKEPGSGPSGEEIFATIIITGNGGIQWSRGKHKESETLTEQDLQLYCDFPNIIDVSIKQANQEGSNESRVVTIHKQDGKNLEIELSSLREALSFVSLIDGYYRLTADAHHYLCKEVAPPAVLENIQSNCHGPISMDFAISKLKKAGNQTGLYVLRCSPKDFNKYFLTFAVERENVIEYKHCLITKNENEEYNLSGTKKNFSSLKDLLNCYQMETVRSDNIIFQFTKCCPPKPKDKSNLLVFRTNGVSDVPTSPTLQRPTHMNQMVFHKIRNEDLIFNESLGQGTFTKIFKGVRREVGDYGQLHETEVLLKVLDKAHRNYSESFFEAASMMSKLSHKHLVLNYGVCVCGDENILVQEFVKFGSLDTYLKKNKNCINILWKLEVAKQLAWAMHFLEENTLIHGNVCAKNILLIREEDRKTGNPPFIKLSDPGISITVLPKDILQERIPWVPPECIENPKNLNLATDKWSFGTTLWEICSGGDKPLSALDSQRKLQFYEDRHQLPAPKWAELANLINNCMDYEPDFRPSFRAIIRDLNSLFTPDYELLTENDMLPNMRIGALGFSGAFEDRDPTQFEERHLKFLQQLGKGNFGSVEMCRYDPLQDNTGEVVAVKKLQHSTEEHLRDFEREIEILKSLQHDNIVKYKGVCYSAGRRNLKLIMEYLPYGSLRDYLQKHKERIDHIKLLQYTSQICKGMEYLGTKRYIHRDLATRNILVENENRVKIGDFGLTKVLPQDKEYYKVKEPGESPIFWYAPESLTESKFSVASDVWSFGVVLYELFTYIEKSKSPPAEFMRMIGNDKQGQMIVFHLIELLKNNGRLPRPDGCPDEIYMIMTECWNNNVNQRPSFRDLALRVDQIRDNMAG
UniProt P23458: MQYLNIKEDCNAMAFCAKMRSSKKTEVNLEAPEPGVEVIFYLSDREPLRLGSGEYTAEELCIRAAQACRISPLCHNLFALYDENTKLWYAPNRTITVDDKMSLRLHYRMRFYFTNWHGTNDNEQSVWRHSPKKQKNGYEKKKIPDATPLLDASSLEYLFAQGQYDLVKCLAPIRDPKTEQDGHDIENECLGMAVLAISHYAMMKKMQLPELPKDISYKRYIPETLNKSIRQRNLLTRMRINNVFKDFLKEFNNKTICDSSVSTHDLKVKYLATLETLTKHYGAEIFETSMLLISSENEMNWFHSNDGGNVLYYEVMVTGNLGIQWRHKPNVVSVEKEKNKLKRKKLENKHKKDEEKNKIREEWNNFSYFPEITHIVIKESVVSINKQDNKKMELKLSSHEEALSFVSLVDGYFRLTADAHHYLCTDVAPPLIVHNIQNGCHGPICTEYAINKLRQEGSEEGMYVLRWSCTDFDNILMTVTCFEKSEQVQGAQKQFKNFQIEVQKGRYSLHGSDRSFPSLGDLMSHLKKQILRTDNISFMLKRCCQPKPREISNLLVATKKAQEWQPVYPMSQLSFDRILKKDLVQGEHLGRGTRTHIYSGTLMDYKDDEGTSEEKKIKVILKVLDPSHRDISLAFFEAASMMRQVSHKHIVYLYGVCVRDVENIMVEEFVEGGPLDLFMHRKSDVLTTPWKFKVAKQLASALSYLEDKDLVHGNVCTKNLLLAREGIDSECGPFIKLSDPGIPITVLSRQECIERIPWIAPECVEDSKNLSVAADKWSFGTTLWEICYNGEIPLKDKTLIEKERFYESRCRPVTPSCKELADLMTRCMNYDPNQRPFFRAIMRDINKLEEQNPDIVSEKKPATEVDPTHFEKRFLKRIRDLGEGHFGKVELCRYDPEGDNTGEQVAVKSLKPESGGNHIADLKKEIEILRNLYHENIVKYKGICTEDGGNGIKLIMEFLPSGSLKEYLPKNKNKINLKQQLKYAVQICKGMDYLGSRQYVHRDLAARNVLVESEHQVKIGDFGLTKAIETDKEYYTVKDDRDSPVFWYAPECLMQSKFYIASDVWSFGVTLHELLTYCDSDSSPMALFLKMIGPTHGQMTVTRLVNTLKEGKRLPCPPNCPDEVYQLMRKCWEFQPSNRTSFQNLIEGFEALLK

Columns and labels:
[1] = molecular target: T1, JAK2 (Homo sapiens, UniProt O60674); assay: Test for in vitro activity of JAK2 kinase (LANCE Ultra ULight peptide); type: biochemical; details: recombinant human JAK2, 12 uM ATP, 60 min
T1 construct: purchased Life technology
Method: (§1) Test for in vitro activity of Jak1, Jak2, and Jak3 Kinase
(§2) Recombinant human […] of JAK1, JAK2 and JAK3 were purchased from Life technology. LANCE Ultra ULight™-JAK-1 (Tyr1023) peptide and LANCE Eu-W1024 Anti-phosphotyrosine (PT66) were purchased from PerkinElmer. Multimode ELISA, Envison(PerkinElmer) reader was used.
(§3) The test compound was diluted according to gradient of three times concentration with a final concentration of from 10 uM to 0.17 nM at 11 concentrations totally, each concentration with two complex holes, and the content of DMSO in the detection was 1%.
(§4) 0.02 nM of JAK2 Protein kinase, 50 nM of LANCE Ultra ULight™-JAK-1(Tyr1023) peptide, 12 uM of ATP, 50 mM of HEPES (pH 7.5), 10 mM of MgCl2, 1 mM of EGTA, 2 mM of DTT, 0.01% BRIJ-35. Checker board is White Proxiplate 384-Plus plate (PerkinElmer). The reaction was carried out at room temperature for 60 min and the reaction system was 10 ul.
(§5) 10 ul detection reagent was added to reaction plate, wherein the final concentration of LANCE Eu-W1024 Anti-phosphotyrosine (PT66) was 2 nM, the final concentration of EDTA was […], incubated at room temperature for 60 min, with Envison reader.
(§6) The reading was converted to inhibition ratio (%) by the following formula: the inhibition ratio (%)=([…])/(Max−Min)×100%.

[2] = molecular target: T2, JAK1 (Homo sapiens, UniProt P23458); assay: Test for in vitro activity of JAK1 kinase (LANCE Ultra ULight peptide); type: biochemical; details: recombinant human JAK1, 38 uM ATP, 90 min
T2 construct: purchased Life technology
Method: as §1, §2, §3
as §4, with “2” for “0.02”, “JAK1” for “JAK2”, “38” for “12”, “90” for “60”
as §5, §6

N-(2-(difluoromethyl)-5,6,7,8-tetrahydroimidazo[1,2-a]pyridine-7-yl)-N-methyl-7H-pyrrolo[2,3-d]pyrimidine-4-amino [WX611]
IC50 [1]: 100 to 1000 nM
IC50 [2]: 10 to 100 nM
